# Assay results from US11286274B2, “Nicotinamide riboside derivatives and their uses” (MitoPower LLC, priority 2017, dated 2022).
# Several values for one entry are separate records, joined by “and”; a condition that tells them apart may be missing. Equal values may be shown once.
# Tests used:
# Jurkat cells [1] = test: Total cellular NAD+ level after MNNG-induced depletion (NAD/NADH Glo Assay), Jurkat cells; format: cell-based; settings: no test compound
# Jurkat cells [2] = test: MNNG-induced cytotoxicity / cytoprotection (CellTiter-Blue Cell Viability Assay), Jurkat cells; format: cell-based; settings: no test compound
substance,measurement,setting,value
methynitronitrosoguanidine,depletion of NAD+ level at 4 hr,Jurkat cells [1]; 75 μM MNNG for 30 min,92.1%
same,depletion of NAD+ level at 4 hr,Jurkat cells [1]; 100 μM MNNG for 30 min,76.9% and 94%
same,cytotoxicity at 4 hr,Jurkat cells [2]; 75 μM MNNG for 30 min,87%
same,cytotoxicity at 4 hr,Jurkat cells [2]; 150 μM MNNG for 30 min,63.2%
same,cytotoxicity at 4 hr,Jurkat cells [2]; 200 μM MNNG for 30 min,78%
